{
  "source": "patent US20240309051A1",
  "about": "“[…] T (TFH) CELLS […] TO SARS-COV-2 VIRUS” (priority 2021, published 2024)",
  "test_system": "Clone 1/2 (TCR-017 or TCR-018) reconstituted mouse T-cell hybridomas harboring the NFAT-GFP reporter gene",
  "experiment": "NFAT-GFP reporter T-cell hybridomas reconstituted with clone 1/2 TCRαβ, stimulated with synthesized peptide, GFP or CD69",
  "conditions": "1 μg/ml peptide; APC derived from patient Ts-018; 20 hr after stimulation",
  "data": [
    {"substance": "SEQ ID NO: 13: amino acid sequence of follicular T cell epitope, essential for activation of clone 1/2 (IAQYTSALL; amino acid sequence of epitope of SARS-CoV-2 for focillar helper T cell)", "values": [
      {"measurement": "T cell activation evaluated by the expression of GFP or CD69 (recognition by clone 1/2)", "result": "essential for activation"}
    ]}
  ]
}
